# Assay results taken from PMC9727064, “Performance assessment and economic analysis of a human Liver-Chip for predictive toxicology” (Communications Medicine, 2022).
# Tested on: human Liver-Chip (primary human hepatocytes)
# Experiment: Liver-Chip albumin production in top channel effluent (ELISA)
# Conditions: expanded drug list, lowest multiplier causing a 50% reduction in albumin production
smiles,measurement,setting,value
C=C[C@@H]1C[C@]1(NC(=O)[C@@H]1C[C@@H](Oc2ncc(OC)c3ccc(Cl)cc23)CN1C(=O)[C@@H](NC(=O)OC(C)(C)C)C(C)(C)C)C(=O)NS(=O)(=O)C1CC1 [Asunaprevir],Albumin IC50 Donor 1,,190 unbound human Cmax multiplier
CC(C(=O)O)c1ccc2oc(-c3ccc(Cl)cc3)nc2c1 (stereo not drawn) [Benoxaprofen],Albumin IC50 Donor 1,,8 unbound human Cmax multiplier
same,Albumin IC50 Donor 2,donor 2,20 unbound human Cmax multiplier
